Measurements reported in patent publication US9980980B2, “Compounds, compositions and methods for protecting brain health in neurodegenerative disorders” (Amazentis SA, priority 2009, dated 2018).

Molecular target: Aβ(25-35) (Homo sapiens, UniProt P05067)
Experiment: Screening assay for inhibition of Aβ(25-35) aggregation (Thioflavin-T fluorescence)
Assay type: biochemical
Details: read-out: IC50 for inhibiting aggregation of Aβ25-35; molecule at purity above 90%; ThT fluorescence, 25° C., 0-120 minutes
Experimental: Monomeric Aβ(25-35) purchased from Bachem Pharma, was dissolved in distilled sterile water at 4° C., then sonitcated for about 1 minute. The peptide stock solution was then aliquoted and stored at −20° C. All steps were carried out at 4° C. to prevent Aβ(25-35) polymerization.
Fractions of polyphenols were all standardized to 10 μg/mL, before being assessed and stored at −20° C. Measurement of inhibition was performed by following the kinetic of Aβ(25-35) polymerization in a reaction mixture containing 70 μL phosphate buffer, 10 μL Thioflavin-T (100 μM stock solution), 10 μL MeOH (10 mM final concentration) pH 7.2 and 10 μL of Aβ(25-35) (100 μM final concentration) adapting known in the art procedures. LeVine, H., 3rd (1993). “Thioflavine T interaction with synthetic Alzheimer's disease beta-amyloid peptides: detection of amyloid aggregation in solution.” Protein Sci. 2(3): 404-10. […]
To study the inhibitory activity of the fractions, the extracts were diluted to the final concentration in MeOH and 10 μL was added to the mixture at 4° C. Fluorescence spectroscopy was recorded with the excitation at 450 nm and emission at 490 nm. The polymerization kinetics was monitored at 25° C. between 0 and 120 minutes. The IC50 was calculated by using a least-square fitting technique to match the experimental data with a sigmoidal curve. […]

`O=C(OC1OC2COC(=O)c3cc(O)c(O)c(O)c3-c3c(cc(O)c(O)c3O)C(=O)OC2C(OC(=O)c2cc(O)c(O)c(O)c2)C1O)c1cc(O)c(O)c(O)c1` (stereo not shown) was tested, and the IC50 was 9.3 µM.
